ClpP mod: qHTS Assay for Activators of ClpP. 1.9% of 340,000 active. ATP-dependent Clp protease proteolytic subunit (Bacillus subtilis (strain 168)), P80244. purified B. subtilis ClpP, FRET peptide cleavage, 20 min. Potency, µM (series often up to 57.5 µM), for the others: at the highest dose activity change, negative = active; active = well fitted falling curve with a large enough effect; inconclusive = small, poorly fitted or top-dose-only effect; inactive = no such curve, though single readings can be large or run the other way; also: potency is read from the fitted curve at half-maximal effect; the source files actives as falling curves though it sought activators and does not explain the sign; nearly all actives have a fitted effect of over 65% in size
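ClpP 10 microg/mL final, pH 8 Tris/KCl buffer with BSA, glycerol, Tween-20; compound pinned in; FRET-FV substrate; RT 20 min; Ex320/Em430; ΔFRET vs ADEP 5.8 microM, DMSO, no enzyme.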
miR-21 FLuc: raises the signal of a miR-21 reporter; HeLa miR-21 FLuc reporter, luciferase, 48 h; Potency, µM (top dose mostly 38.3 µM), for inactives: at the highest dose reporter change, positive = more light; AID 2288; 340,000 tested, under 10 active; active = well fitted rising curve with a large enough effect; inconclusive = small, poorly fitted or top-dose-only effect; inactive = no such curve, though single readings can be large or run the other way;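 note: % of control where 0% means no effect; miR-21 action dims this reporter so a rising signal means less miR-21 action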
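HeLa cells endogenously expressing miR-21, stably carrying CMV-driven firefly luciferase with a downstream miR-21 binding site, 2000 cells/well. Titrations up to approximately 40 uM, 48 hours; luciferase luminescence read.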
Nrf2 ARE act: activates Nrf2 signaling; Potency, µM (top dose mostly 46.1 µM), for inactives: top-dose activation, actives largely listed as activators; AREc32 ARE-luciferase reporter (MCF7-derived line), luminescence, 24 h; 0.31% of 410,000 active; also: potency is read from the fitted curve at half-maximal effect; % of control where 0% means no effect; nearly all actives have a fitted effect of over 65% in size
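Reporter line AREc32 (ARE-Fluc), seeded overnight in OPTI-MEM with 5% FBS; compound pin-transferred, 24 hr at 37 deg C, 5% CO2; luminescent read-out.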
Nrf2 inh: blocks Nrf2 signaling | 2.1% of 360,000 active | A549 ARE-Fluc reporter, luciferase luminescence, 18-24 h | AID 504444 | Potency, µM (top dose mostly 46 µM), for inactives: top-dose activity change, negative = inhibition, actives largely listed as inhibitors; also: potency is read from the fitted curve at half-maximal effect; % is scaled to controls: 0 for no effect and ±100 for the full control effect; nearly all actives have a fitted effect of over 60% in size
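Reporter: ARE-Fluc in A549. Exposure: 18-24 h, 37 °C, 5% CO2, 5% FBS OPTI-MEM. Readouts: fluorescent cytotoxicity (CellTiter-Fluor), then luminescent Nrf2 signal after BugLite.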
A549 tox: counter-screen for Nrf2 inhibitors: cytotoxicity in A549 cells. 0.16% of 390,000 active. A549 ARE-Fluc cells, CellTiter-Fluor viability, 18-24 h. Potency, µM (doses to about 46 µM), for the others: top-dose activity change, negative = cytotoxicity, most hits filed as inhibitors. AID 504648; also: potency is read from the fitted curve at half-maximal effect; % is scaled to controls: 0 for no effect and ±100 for the full control effect
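A549 ARE-Fluc cells in 5% FBS OPTI-MEM, 5000 cells/well, rested 2 h then exposed to compounds in concentration-response for 18-24 h at 37 °C. Viability by CellTiter-Fluor fluorescence (Ex 405/Em 525) after 30 min; luciferase luminescence (BugLite, 15 min, RT) read afterwards.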
p53 reactivation: mutant p53 re-activation in reporter cells; Potency, µM (series often up to 92.2 µM), inactives show at the highest dose activity change, positive = activation, actives largely listed as activators; 0.063% of 320,000 active; H1299 p53-A138V BP100-luciferase reporter, luminescence, 24 h; also: potency is read from the fitted curve at half-maximal effect; % of control where 0% means no effect; nearly all actives have a fitted effect of over 45% in size
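H1299 (p53-null), stable ts p53-A138V + BP100-Luc; 1000 cells/well, Opti-MEM/10% FBS; cpd 4 pt, 1:5; 24 h, 37 deg C, 5% CO2; detection reagent 10 min RT; luminescence.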
An asterisk follows results filed as active; ? = inconclusive; nt = no result given. Hits are enriched below; roughly 3.7% of the tested compounds scored in any of these assays. Unless noted, calls follow the shape of the dose curve; as a rule, active = well fitted curve in the direction sought with a large enough effect; inconclusive = small, poorly fitted or top-dose-only effect, or another doubt; inactive = no such curve, though single readings can be large; an effect the other way counts as inactive or inconclusive.

#1 COCCNc1nnc(SC(C)C(=O)Nc2ccc(-c3nc4ccc(C)cc4s3)cc2)s1 (stereo not given)
#2 CC(NS(=O)(=O)c1cccc(Cl)c1)C(=O)Nc1ccc(-c2nc3ccccc3s2)cc1 (stereo not given)
#3 CC(C)C(=O)N1CCCC1(C)C(=O)Nc1ccc(F)cc1 (stereo not given)
#4 Cc1ccc(CNC(=O)CCCn2c(=O)c3ccccc3n(CC(=O)Nc3ccc(C)cc3)c2=O)cc1
#5 CC(C)(C)OC(=O)NCC(=O)NNC(=O)c1nc2ccccc2[nH]1
#6 CC(C)c1ccc(S(=O)(=O)c2cnc(SCC(=O)Nc3cccc(C(F)(F)F)c3)nc2N)cc1
#7 Cc1ccnc(-n2c(C)cc(/C=N/NC(=O)COc3cccc4cccnc34)c2C)c1
#8 O=C(NCCN1CCC(n2c(=O)[nH]c3ccccc32)CC1)c1ccncc1
screen / no.	1	2	3	4	5	6	7	8
ClpP mod	17.8µM*	35.5µM*	0.7%	-1.9%	nt	-10.5%	14.1µM*	0.3%
miR-21 FLuc	-7.6%	-27.9%	nt	-0.3%	nt	8.0%	0.4%	nt
Nrf2 ARE act	2.8%	3.9%	-0.2%	0.6%	nt	0.3%	2.5%	-0.7%
Nrf2 inh	?	nt	nt	4.0%	-5.3%	?	-4.2%	nt
A549 tox	-2.9%	-5.4%	nt	2.3%	6.8%	-18.3%	1.1%	nt
p53 reactivation	?	13.7%	nt	nt	nt	nt	-5.5%	nt

#9 CCOC(=O)c1c(NC(=O)c2cc3nc(-c4ccc(OC)cc4)cc(C(F)(F)F)n3n2)sc2c1CCC(C)C2 (stereo not given)
#10 COc1ccc(-c2cc(C(F)(F)F)n3nc(C(=O)NCCCn4ccnc4)cc3n2)cc1
#11 Cc1ccc(-c2cc(C(F)(F)F)n3nc(C(=O)Nc4sc5c(c4C#N)CCC(C)C5)cc3n2)cc1 (stereo not given)
#12 COC(=O)c1c(NC(=O)c2cc3nc(-c4ccc(OC)cc4)cc(C(F)(F)F)n3n2)sc2c1CCCC2
#13 Cc1ccccc1/C=C1\C(=O)Nc2ccc(F)cc21
#14 O=C1Nc2ccccc2/C1=C/c1ccccc1F
#15 CCN(CC)CC(=O)Nc1ccc(-c2nc3cc(NC(=O)CN(CC)CC)ccc3o2)cc1
#16 COc1ccc(-c2nc3cc(NC(=O)CSc4ccc(C)cc4)ccc3o2)cc1
screen / no.	9	10	11	12	13	14	15	16
ClpP mod	31.6µM*	28.2µM*	1.1%	28.2µM*	nt	nt	1.9%	4.2%
miR-21 FLuc	2.0%	-16.8%	-4.8%	-0.5%	-1.3%	-12.9%	-20.4%	-43.5%
Nrf2 ARE act	-0.6%	-0.6%	-0.8%	0.0%	?	?	3.8%	-1.2%
Nrf2 inh	nt	-26.0%	1.1%	nt	2.91µM*	14.2%	nt	2.1%
A549 tox	-8.9%	1.5%	11.9%	-3.8%	?	0.7%	-4.8%	-20.3%
p53 reactivation	nt	-1.2%	nt	nt	0.7%	17.9%	24.7%	nt

Fetched by compound from the list above, 3 records:
#16 COc1ccc(-c2nc3cc(NC(=O)CSc4ccc(C)cc4)ccc3o2)cc1
#15 CCN(CC)CC(=O)Nc1ccc(-c2nc3cc(NC(=O)CN(CC)CC)ccc3o2)cc1
#10 COc1ccc(-c2cc(C(F)(F)F)n3nc(C(=O)NCCCn4ccnc4)cc3n2)cc1
screen / no.	16	15	10
ClpP mod	4.2%	1.9%	28.2µM*
miR-21 FLuc	-43.5%	-20.4%	-16.8%
Nrf2 ARE act	-1.2%	3.8%	-0.6%
Nrf2 inh	2.1%	nt	-26.0%
A549 tox	-20.3%	-4.8%	1.5%
p53 reactivation	nt	24.7%	-1.2%

More entries follow.
#17 CCC(C)NCC(=O)Nc1ccc(-c2nc3cc(NC(=O)CNC(C)CC)ccc3o2)cc1 (stereo not given)
#18 Cc1ccc(SCC(=O)Nc2ccc3oc(-c4ccc(F)cc4)nc3c2)cc1
#19 CC(C)CC(=O)Nc1ccc(-c2nc3ccccc3c(=O)o2)cc1
#20 Cc1cccc(Cn2cc(S(=O)(=O)c3ccccc3)c(=O)c3cc(F)c(N4CCOCC4)cc32)c1
#21 COc1ccc(OC)c(-c2cc(C(=O)Nc3cc(C)on3)no2)c1
#22 COc1ccc(OC)c(-c2cc(C(=O)Nc3c(C)nn(Cc4ccccc4)c3C)no2)c1
#23 COc1ccc(-c2cc(C(=O)Nc3cc(C)n(Cc4ccc(Cl)cc4)n3)no2)cc1OC
#24 COc1ccc(OC)c(-c2cc(C(=O)Nc3c(C)nn(Cc4ccc(Cl)cc4)c3C)no2)c1
screen / no.	17	18	19	20	21	22	23	24
ClpP mod	12.6µM*	3.55µM*	11.2µM*	?	?	?	296.2%	35.5µM*
miR-21 FLuc	-0.4%	-58.9%	11.8%	-6.4%	-10.3%	-7.5%	7.0%	0.4%
Nrf2 ARE act	3.1%	1.5%	0.7%	0.7%	7.6%	3.3%	-0.2%	0.5%
Nrf2 inh	nt	13.8%	-6.1%	-20.5%	nt	14.6µM*	4.11µM*	nt
A549 tox	?	-6.5%	-0.9%	-11.9%	-4.0%	-15.0%	-28.4%	-0.2%
p53 reactivation	14.5%	nt	?	nt	34.1%	-10.8%	20.3%	1.0%
